This note sets out measurements from patent US5854081A, “Stable expression of human A2B adenosine receptors, and assays employing the same” (The University of Patent Foundation, priority 1996, dated 1998).

Amino acid sequences for entries named in this document (tags omitted). A change or cut given only in a name is not applied to a line headed by its entry. Chains listed by the source or under a name are the forms on record and can include a tag or linker.
UniProt P29274, with tags, fused parts or gaps: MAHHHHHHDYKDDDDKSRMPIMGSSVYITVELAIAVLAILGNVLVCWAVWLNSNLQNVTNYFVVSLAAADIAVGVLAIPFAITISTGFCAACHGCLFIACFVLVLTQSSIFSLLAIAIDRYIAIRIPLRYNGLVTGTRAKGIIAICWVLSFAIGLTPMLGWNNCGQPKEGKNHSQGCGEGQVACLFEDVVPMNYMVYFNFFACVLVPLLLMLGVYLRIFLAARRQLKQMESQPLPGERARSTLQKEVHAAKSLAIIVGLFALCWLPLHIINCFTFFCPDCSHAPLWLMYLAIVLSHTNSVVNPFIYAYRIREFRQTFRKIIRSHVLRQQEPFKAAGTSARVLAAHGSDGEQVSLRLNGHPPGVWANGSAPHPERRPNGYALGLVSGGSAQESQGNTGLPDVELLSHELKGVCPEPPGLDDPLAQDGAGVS

Assay [1] concerns the target recombinant human H/F-A2A adenosine receptor (Homo sapiens, UniProt P29274). The assay can be described thus: Competition for radioligand binding, H/F-A2A. Conditions: competition with 70 nM [^3 H]NECA.
Assay [2] concerns the target recombinant human native-A2A adenosine receptor (Homo sapiens, UniProt P29274). The assay can be described thus: Competition for radioligand binding, native-A2A. Conditions: competition with 70 nM [^3 H]NECA.

Consider `CCCn1c(=O)c2[nH]c(C3CCCC3)nc2n(CCC)c1=O` [CPX, 8-cyclopentyl-1,3-dipropylxanthine], for which the figures for the “NH (Hill coefficient)” value in assay [1] and in assay [2] were 0.77 ± 0.11 and 0.80 ± 0.06, respectively.
